Assay results published in US20090023780A1 (priority 2000, published 2009).

Assays:
Sprague-Dawley rats [1] = experiment: Phase 2: ability of gacyclidine to counter the hyperalgia induced by naloxone administered during the analgesic effect of fentanyl (modified Randall-Selitto test); conditions: for prevention of the naloxone-revealed lowering of nociceptive threshold (fentanyl activation of nociception facilitator system): then naloxone 1 mg/kg s.c.
Sprague-Dawley rats [2] = experiment: Phase 3: potentiating effect of gacyclidine on the analgesic effect of fentanyl and fentanyl-induced prolonged allodynia (modified Randall-Selitto test); conditions: 30 min before fentanyl 4x40 μg/kg i.v.

Molecule | effect of naloxone on the nociceptive threshold during fentanyl analgesia (Sprague-Dawley rats [1]; naloxone 1 mg/kg s.c., 10 min after last fentanyl injection (4x40 μg/kg i.v.), saline pre-treated rats) | prevention of the naloxone-revealed lowering of nociceptive threshold (fentanyl activation of nociception facilitator system) (Sprague-Dawley rats [1]; lowest dose of gacyclidine 0.1 mg/kg i.v., 30 min before fentanyl 4x40 μg/kg i.v.) | prevention of the naloxone-revealed lowering of nociceptive threshold (fentanyl activation of nociception facilitator system) (Sprague-Dawley rats [1]; pre-treatment with gacyclidine 30 min before fentanyl 4x40 μg/kg i.v.) | prevention of fentanyl-induced allodynia lasting several days (Sprague-Dawley rats [1]; single injection 0.1 mg/kg, 30 minutes before the analgesic) | potentiation of the analgesic effect of fentanyl (Sprague-Dawley rats [2]; gacyclidine 0.3 and 1 mg/kg i.v.) | prevention of prolonged allodynia after fentanyl (Sprague-Dawley rats [2]; gacyclidine at all the doses (0.1, 0.3 and 1 mg/kg i.v.))
C=CCN1CC[C@]23c4c5ccc(O)c4O[C@H]2C(=O)CC[C@@]3(O)[C@H]1C5 | considerable lowering of the nociceptive threshold, below the basic values | – | – | – | – | –
1-[cis-2-methyl-1-(2-thienyl)cyclohexyl]piperidine | – | completely prevents this effect | This activation is prevented | completely prevents this allodynia | potentiates the analgesic effect of the fentanyl | prevents prolonged allodynia
